{"source": "paper PMC7037682", "about": "“Herb–Drug Interaction of Red Ginseng Extract and Ginsenoside Rc with Valsartan in Rats” (Molecules, 2020)", "key": {"OCT1 [1]": {"molecular_target": "T1, OCT1 (Homo sapiens, UniProt O15245)", "T1 sequence (O15245 1-554)": "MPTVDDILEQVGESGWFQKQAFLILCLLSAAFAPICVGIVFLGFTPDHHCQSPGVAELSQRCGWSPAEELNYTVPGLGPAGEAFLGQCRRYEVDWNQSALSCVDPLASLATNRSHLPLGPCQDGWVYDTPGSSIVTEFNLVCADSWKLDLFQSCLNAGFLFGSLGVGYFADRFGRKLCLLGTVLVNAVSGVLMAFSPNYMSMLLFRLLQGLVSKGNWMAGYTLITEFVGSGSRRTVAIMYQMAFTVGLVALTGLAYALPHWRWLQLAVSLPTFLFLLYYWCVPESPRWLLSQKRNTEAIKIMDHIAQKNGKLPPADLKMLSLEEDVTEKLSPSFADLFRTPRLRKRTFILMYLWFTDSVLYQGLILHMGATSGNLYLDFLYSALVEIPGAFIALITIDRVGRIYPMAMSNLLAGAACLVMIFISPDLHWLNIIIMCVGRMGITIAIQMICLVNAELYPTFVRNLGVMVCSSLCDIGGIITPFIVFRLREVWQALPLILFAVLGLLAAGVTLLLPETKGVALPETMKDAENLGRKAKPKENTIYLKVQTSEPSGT", "test": "Inhibition of OCT1-mediated [3H]MPP+ uptake in HEK293-OCT1 cells", "conditions": "read-out: IC50 OCT1; HEK293-OCT1, 0.1 μM [3H]MPP+ uptake, 5 min", "description": "(§1) HEK293 cells overexpressing the OCT1, OCT2, OAT1, OAT3, OATP1B1, and OATP1B3 transporters (HEK293-OCT1, -OCT2, -OAT1, -OAT3, -OATP1B1, and -OATP1B3, respectively) and HEK293-mock cells (Corning Life Sciences; Woburn, MA, USA) were used and characterized as previously described.\n(§2) HEK293 cells overexpressing drug transporters and HEK293-mock cells were seeded in poly-D-lysine-coated 96-well plates at a density of 10^5 cells/well and were cultured in DMEM supplemented with 10% FBS, 5 mM non-essential amino acids, and 2 mM sodium butyrate in a humidified atmosphere with 8% CO2 at 37 °C.\n(§3) To examine the effects of ginsenosides and typical inhibitors on transporter activity, aliquots (100 μL) of HBSS containing the probe substrate and ginsenosides or typical inhibitors were added to the cells after aspirating pre-incubated HBSS. The concentrations and probe substrates were as follows: 0.1 μM [^3H]MPP^+ for OCT1 and OCT2, 0.1 μM [^3H]PAH for OAT1, 0.1 μM [^3H]ES for OAT3 and OATP1B1, and 0.1 μM [^3H]EG for OATP1B3. […] Then the uptake of probe substrates into HEK293-mock cells and HEK293-OCT1, -OCT2, -OAT1, -OAT3, -OATP1B1, and -OATP1B3 cells in the presence and absence of typical inhibitor or each ginsenoside with previously described concentration range was measured for 5 min. […] The radioactivity of the probe substrates in the cells was determined using a liquid scintillation counter. […]"}, "OCT2 [2]": {"molecular_target": "T2, OCT2 (Homo sapiens, UniProt O15244)", "T2 sequence (O15244 1-555)": "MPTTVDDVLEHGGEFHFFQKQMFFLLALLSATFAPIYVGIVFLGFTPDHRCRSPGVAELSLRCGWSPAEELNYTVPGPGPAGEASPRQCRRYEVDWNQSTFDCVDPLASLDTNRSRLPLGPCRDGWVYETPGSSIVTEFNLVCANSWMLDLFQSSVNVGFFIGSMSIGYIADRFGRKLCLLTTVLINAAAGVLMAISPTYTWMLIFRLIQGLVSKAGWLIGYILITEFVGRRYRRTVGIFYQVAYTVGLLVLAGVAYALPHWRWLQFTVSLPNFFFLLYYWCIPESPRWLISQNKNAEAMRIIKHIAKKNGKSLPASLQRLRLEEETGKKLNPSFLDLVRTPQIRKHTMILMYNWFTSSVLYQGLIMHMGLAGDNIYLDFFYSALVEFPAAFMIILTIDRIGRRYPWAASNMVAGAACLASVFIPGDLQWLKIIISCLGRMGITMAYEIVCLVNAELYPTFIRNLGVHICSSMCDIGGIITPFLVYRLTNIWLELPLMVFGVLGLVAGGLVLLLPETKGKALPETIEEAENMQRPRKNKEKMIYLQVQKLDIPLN", "test": "Inhibition of OCT2-mediated [3H]MPP+ uptake in HEK293-OCT2 cells", "conditions": "read-out: IC50 OCT2; HEK293-OCT2, 0.1 μM [3H]MPP+ uptake, 5 min", "description": "as §1, §2, §3"}, "OCT1 [3]": {"molecular_target": "T1, OCT1", "conditions": "read-out: IC50 OCT1, literature; cited from earlier work"}, "OCT2 [4]": {"molecular_target": "T2, OCT2", "conditions": "read-out: IC50 OCT2, literature; cited from earlier work"}}, "note": "Where two headings read alike, the source gives them in different places.", "data": [{"substance": "Triethylammonium [TEA, reference compound]", "values": [{"measurement": "IC50", "setting": "OCT1 [1]", "value": 1.18, "unit": "mM"}, {"measurement": "IC50", "setting": "OCT2 [2]", "value": 1.4, "unit": "mM"}, {"measurement": "IC50", "setting": "OCT1 [3]", "value": "1.4 to 7.4", "unit": "mM"}, {"measurement": "IC50", "setting": "OCT2 [4]", "value": 2.05, "unit": "mM"}]}]}
